Antibody variant affinities, Ab-14 heavy chain, assay B

The measurements come from Li et al. 2023 (doi:10.1038/s41467-023-39022-2) through the FLAb antibody collection.

Antigen: PDVDLGDISGINAS, a 14-residue peptide of the SARS-CoV-2 spike HR2 region.

The variants keep the light chain, the linker and the frameworks of Ab-14 (scFv order VH, three GGGGS repeats, VL).
VH: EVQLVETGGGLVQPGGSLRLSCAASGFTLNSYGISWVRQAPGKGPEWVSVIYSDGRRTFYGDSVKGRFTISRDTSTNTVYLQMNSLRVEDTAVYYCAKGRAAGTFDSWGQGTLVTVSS
VL: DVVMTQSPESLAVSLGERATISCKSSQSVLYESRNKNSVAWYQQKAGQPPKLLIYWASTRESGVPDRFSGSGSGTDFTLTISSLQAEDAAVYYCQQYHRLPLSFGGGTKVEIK

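The parent was found by panning a naive human phage display library on the peptide. Designed CDR sequences, proposed from the first random library and measured here. Several design methods are mixed in this list. AlphaSeq pools MATa yeast showing the antibodies with MATalpha yeast showing the peptide. Pairs that bind mate more often; barcode pairs of the diploids are counted by sequencing. The ratio of observed to expected reads was calibrated, replicate by replicate, on BCL2-family standards whose Kd was known from biolayer interferometry. Mating was done six times.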

Variants are written as CDR1, CDR2 and CDR3 of the heavy chain (limits as in the source). Parent: GFTLNSYGIS, VIYSDGRRTFYGDSVK, GRAAGTFDS. Scale: log10 of Kd in nM, estimated from mating counts; low values are strong binders. A mean of the replicates is given; it leaves out those without a signal. An entry "nd" has no value in the source: the pair was not observed among the diploids in any replicate. This suggests poor binding but is not conclusive. Of ten entries with the parent sequence, four were seen in most replicates (averages 0.34 to 2.37), three in one and three in none, so single entries are noisy. In the paper, a design with two or fewer of six values counts as a poor binder. Values of this round are not directly comparable with the first-round values of the same sequences. Nonspecific signal, from three strains lacking the peptide, appeared in 1% of pairings of all heavy chain designs, centred on 2.08 (5% of these signals below 0.84); values are not corrected for it. The control count says in how many pairings with the empty strains this scFv gave a signal.

mean log10 Kd (nM)	detected	control signals	CDR-H1	CDR-H2	CDR-H3
1.15	6/6	0/18	GFTLNEYGIS	VIYSDGWRTFYTDSVK	GRFAGTFDS
nd	0/6	0/18	GQDLNEYGIS	VIYADGLRTAYTNNVK	GNQSGFDSG
-0.58	6/6	0/18	GFDLEDYGIS	VIYADGRRTFYVDSVK	GKVAGTFDV
-0.29	6/6	1/18	GFDLNEYGIS	VIYADGKRTAYANSVK	GNVAGTFDI
-0.02	6/6	0/18	GFDLNEYGIS	VIYADGQRTFYADSVK	GEAAGTFDQ
-0.52	6/6	0/18	GFTLNEYGIS	VIYSDGRRTFYTDSVK	GTAAGTFDL
-0.38	6/6	0/18	GFDLDEYGIS	VIYADGMRTYYADSVK	GEVAGTFDT
nd	0/6	0/18	GIELNSYGIS	VIYSDGRRTFYKDSVK	GRAPGTFKS
nd	0/6	1/18	GFTLNSYGIS	VIYSDGRRTSYTDSVK	GRAAGLFDS
-0.31	6/6	0/18	GFDLDEYGIS	VIYADGKRTAYADSVK	GTNAGTFDQ
nd	0/6	0/18	GKSLMEYGIS	VIYADGRRTAYTDSFK	GGSNADTFV
nd	0/6	0/18	GFTLDSYGIS	VIYSDGRRTFWGDSVK	GRAAGTALS
nd	0/6	1/18	GFTLNDYGIS	VIYSDGRRTMYGDSVK	GRAAQTFDS
nd	0/6	0/18	GFKLDEYGIS	VIYADGSRTEYVQSVK	GDTTVIKFV
nd	0/6	0/18	GFSLNSYGIS	VIYSVGRRTFYGDSVK	GRAKQTFDS
-0.43	6/6	0/18	GFDLNEYGIS	VIYADGVRTAYADSVK	GENAGTFDT
-0.43	6/6	0/18	GFDLNSYGIS	VIYSDGRRAFYGDSVK	GQTAGTFDS
nd	0/6	0/18	GFTLNQHGIS	VIYSDGRRTFYSDSDK	GRAAGFFDS
2.48	1/6	0/18	GFNLDEYGIS	VIYADGIRTQYKDQVK	GGGKMHNLT
nd	0/6	0/18	GDDLQEYGIS	VIYADGLRTAYGNKVK	GGSNGRVTV
1.88	2/6	0/18	GETLNSYGIS	VIYSDGRRTFYGDSVK	GRAAGPFDS
nd	0/6	0/18	GFSLGEYGIS	VIYADGVRRSYADKVK	GKNGAFSLV
0.46	5/6	0/18	GFDLNEYGIS	VIYADGRRTAYSDSVK	GEAGGTFDN
-0.23	6/6	0/18	GFDLNEYGIS	VIYADGRRTFYTDSVK	GNAAGTFSV
nd	0/6	0/18	GFDINEYGIS	VIYADGVRTHYVDDVK	GKHTGYKMM
0.06	6/6	1/18	GFGLDEYGIS	VIYADGMRTFYADSVK	GENAGTFDM
1.89	6/6	0/18	GFTLNSYGIS	VIYSDGRRTFYGDDVK	GRLAGTFDS
-0.35	6/6	0/18	GFNLDEYGIS	VIYADGMRTAYADSVK	GQNAGTFDV
0.12	6/6	0/18	GFDLNEYGIS	VIYADGRRTFYTDSVK	GELAGIFDV
-0.61	6/6	0/18	GFDLNEYGIS	VIYADGVRTAYTDSVK	GENAGTFDT
nd	0/6	0/18	GFDIDEFGIS	VIYADGKRTSYSDTVK	GQLGNAFDL
-0.28	6/6	2/18	GFDLNEYGIS	VIYADGMRTSYIDSVK	GNVAGTFDV
nd	0/6	0/18	GFTLNDYGIS	VMYSDGRRTFYWDQVK	GTAAGKFDS
-0.39	6/6	0/18	GFDLNEYGIS	VIYADGVRTAYADAVK	GNNAGTFDV
0.25	6/6	1/18	GNTLNSYGIS	VIYSDGRRTFYTDSVK	GRTAGTFDS
-0.74	5/6	0/18	GFDLNEYGIS	VIYADGRRTFYTDNVK	GQNAGTFDA
1.89	5/6	0/18	GFDLNSYGIS	VIYSDGRRTFYGDSVK	GKNAGTFDT
-0.29	6/6	0/18	GFDLNEYGIS	VIYADGRRTFYADSVK	GQLAGTFDN
1.40	1/6	1/18	GFTLNKYSIS	VIYSDGRRTSYGDSVK	GRAAGTFDS
nd	0/6	0/18	GFNLDEYGIS	VIYADGMRTAYASKVK	GKVWWFLLM
1.75	4/6	0/18	GFTLNAYGIS	VIYSDGRRTFYGDSVK	GRNAGTFDS
nd	0/6	0/18	GETLEDYGIS	VIYSDGRRTFYHDSVK	GRAAGTFDS
0.89	6/6	0/18	GFDLNSYGIS	VIYSDGRRTFYTDSVK	GMFAGTFDS
2.12	5/6	0/18	GFTLNSYGIS	VIYSDGRRTFYGDSVR	GKAAGTFDS
0.08	6/6	0/18	GFGLNSYGIS	VIYSDGRRTFYADSVK	GREAGTFDS
nd	0/6	0/18	GFTLNSYGIS	VIYSDTRRTFYMDSVK	GRAAGTFDS
0.21	6/6	0/18	GFSLNTYGIS	VIYSDGRRTFYGDSVK	GRTAGTFDS
0.35	6/6	0/18	GFSLNAYGIS	VIYSDGKRTFYGDSVK	GRTAGTFDS
-0.59	6/6	1/18	GFDLNEYGIS	VIYADGIRTAYADDVK	GNAAGTFDS

The first 5 variants above that were never detected:

CDR-H1	CDR-H2	CDR-H3	mean log10 Kd (nM)	detected	control signals
GQDLNEYGIS	VIYADGLRTAYTNNVK	GNQSGFDSG	nd	0/6	0/18
GIELNSYGIS	VIYSDGRRTFYKDSVK	GRAPGTFKS	nd	0/6	0/18
GFTLNSYGIS	VIYSDGRRTSYTDSVK	GRAAGLFDS	nd	0/6	1/18
GKSLMEYGIS	VIYADGRRTAYTDSFK	GGSNADTFV	nd	0/6	0/18
GFTLDSYGIS	VIYSDGRRTFWGDSVK	GRAAGTALS	nd	0/6	0/18